The target of experiment [1] is Tyrosine-protein phosphatase non-receptor type 6 (Homo sapiens, UniProt P29350). Nature of the experiment: Inhibition of SHP1 (unknown origin) expressed in Escherichia coli using pNPP substrate after 5 mins by spectrophotometric analysis.
The target in experiment [2] is T1, Tyrosine-protein phosphatase non-receptor type 1 (Homo sapiens, UniProt P18031).
T1 sequence (P18031 whole entry): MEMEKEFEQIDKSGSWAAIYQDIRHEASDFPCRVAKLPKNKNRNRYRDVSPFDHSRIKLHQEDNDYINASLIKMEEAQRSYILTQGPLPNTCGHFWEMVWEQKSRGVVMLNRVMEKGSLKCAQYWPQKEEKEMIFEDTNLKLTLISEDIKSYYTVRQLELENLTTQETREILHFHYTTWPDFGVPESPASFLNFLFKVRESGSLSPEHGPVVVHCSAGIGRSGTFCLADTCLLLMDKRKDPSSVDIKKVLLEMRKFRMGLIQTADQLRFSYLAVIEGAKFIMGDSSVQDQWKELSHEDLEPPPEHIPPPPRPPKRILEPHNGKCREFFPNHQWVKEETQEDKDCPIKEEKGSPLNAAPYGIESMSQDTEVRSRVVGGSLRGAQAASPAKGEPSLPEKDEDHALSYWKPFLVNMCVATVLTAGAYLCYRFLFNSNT
The experiment is described as follows: Inhibition of PTP1B (unknown origin) expressed in Escherichia coli using pNPP substrate after 5 mins by spectrophotometric analysis.

Chains of the proteins cited; added tags and fusions are not shown. Lines headed by an entry give the natural chain unless they say otherwise; changes in a name come on top.
UniProt P29350: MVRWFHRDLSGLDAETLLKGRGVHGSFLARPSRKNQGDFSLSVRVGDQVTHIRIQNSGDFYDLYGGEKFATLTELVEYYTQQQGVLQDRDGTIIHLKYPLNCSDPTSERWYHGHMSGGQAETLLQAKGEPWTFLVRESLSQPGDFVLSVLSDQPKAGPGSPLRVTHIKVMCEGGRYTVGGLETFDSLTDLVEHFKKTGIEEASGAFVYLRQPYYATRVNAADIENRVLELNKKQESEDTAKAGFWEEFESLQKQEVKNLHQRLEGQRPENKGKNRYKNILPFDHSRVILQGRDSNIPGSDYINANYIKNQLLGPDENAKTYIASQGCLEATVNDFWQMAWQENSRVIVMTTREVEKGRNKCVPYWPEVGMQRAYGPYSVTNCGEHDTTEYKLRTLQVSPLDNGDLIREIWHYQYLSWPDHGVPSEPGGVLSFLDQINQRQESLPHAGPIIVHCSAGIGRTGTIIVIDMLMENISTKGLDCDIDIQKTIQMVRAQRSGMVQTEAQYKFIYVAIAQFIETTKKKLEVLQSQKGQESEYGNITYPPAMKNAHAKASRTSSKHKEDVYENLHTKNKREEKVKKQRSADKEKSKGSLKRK

Experiment [3] in a line: Inhibition of Mycobacterium tuberculosis PTPB expressed in Escherichia coli using pNPP substrate after 5 mins by spectrophotometric analysis.
The target in experiment [4] is T2, Receptor-type tyrosine-protein phosphatase C (Homo sapiens, UniProt P08575).
T2 sequence (P08575 whole entry): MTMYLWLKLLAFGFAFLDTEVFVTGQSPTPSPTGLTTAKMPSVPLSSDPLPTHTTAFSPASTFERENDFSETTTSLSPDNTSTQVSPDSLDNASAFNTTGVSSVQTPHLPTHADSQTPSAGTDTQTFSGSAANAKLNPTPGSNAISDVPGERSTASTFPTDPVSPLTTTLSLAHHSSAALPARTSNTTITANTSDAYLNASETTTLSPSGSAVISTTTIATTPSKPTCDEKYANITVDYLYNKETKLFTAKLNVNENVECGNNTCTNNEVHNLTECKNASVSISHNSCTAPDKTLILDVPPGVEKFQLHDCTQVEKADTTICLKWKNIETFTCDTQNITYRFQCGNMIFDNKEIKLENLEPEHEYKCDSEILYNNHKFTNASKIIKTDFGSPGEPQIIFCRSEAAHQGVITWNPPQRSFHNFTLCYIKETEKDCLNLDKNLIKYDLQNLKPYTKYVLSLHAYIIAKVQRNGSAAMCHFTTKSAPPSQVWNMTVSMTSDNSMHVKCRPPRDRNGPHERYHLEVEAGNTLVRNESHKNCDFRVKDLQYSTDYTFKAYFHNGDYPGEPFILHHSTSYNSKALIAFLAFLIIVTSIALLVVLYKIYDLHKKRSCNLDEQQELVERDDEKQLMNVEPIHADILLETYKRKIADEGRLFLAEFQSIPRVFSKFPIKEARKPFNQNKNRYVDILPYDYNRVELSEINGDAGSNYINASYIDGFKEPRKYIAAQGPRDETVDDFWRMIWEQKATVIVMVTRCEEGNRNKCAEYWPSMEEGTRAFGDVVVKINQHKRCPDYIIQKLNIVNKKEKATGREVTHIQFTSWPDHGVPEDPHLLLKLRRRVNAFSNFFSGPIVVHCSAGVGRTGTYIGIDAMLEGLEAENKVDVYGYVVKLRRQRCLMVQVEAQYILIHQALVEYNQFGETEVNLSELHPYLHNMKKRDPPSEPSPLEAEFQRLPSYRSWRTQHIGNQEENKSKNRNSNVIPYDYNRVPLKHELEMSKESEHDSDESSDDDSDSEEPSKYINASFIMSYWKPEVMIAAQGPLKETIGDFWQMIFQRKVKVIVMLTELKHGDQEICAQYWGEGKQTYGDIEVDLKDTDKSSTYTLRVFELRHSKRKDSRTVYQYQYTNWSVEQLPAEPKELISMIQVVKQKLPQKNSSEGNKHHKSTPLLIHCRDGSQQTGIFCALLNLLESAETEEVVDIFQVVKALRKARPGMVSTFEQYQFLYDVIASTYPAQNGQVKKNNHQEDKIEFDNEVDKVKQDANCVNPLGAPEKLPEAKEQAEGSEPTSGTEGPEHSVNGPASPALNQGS
The experiment is described as follows: Inhibition of CD45 (unknown origin) expressed in Escherichia coli using pNPP substrate after 5 mins by spectrophotometric analysis.

The target of experiment [5] is T3, Tyrosine-protein phosphatase non-receptor type 9 (Homo sapiens, UniProt P43378).
T3 sequence (P43378 whole entry): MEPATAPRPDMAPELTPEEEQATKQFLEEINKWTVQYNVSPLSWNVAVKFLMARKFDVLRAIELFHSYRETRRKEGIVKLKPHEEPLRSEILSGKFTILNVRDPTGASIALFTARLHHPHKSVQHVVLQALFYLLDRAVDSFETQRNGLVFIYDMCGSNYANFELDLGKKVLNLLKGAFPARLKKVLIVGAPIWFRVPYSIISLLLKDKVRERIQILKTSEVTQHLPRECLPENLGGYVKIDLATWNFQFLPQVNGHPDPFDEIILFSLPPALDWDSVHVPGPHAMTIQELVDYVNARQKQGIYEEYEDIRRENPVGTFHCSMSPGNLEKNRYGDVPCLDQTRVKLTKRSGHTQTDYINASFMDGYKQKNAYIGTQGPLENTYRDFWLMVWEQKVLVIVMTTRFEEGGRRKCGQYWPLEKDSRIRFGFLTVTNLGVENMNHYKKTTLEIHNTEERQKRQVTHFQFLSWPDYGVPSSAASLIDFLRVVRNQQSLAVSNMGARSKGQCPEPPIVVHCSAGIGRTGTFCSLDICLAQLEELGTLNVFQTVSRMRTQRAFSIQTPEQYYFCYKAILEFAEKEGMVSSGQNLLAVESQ
Nature of the experiment: Inhibition of PTPMEG2 (unknown origin) expressed in Escherichia coli using pNPP substrate after 5 mins by spectrophotometric analysis.

The values that follow come from ChEMBL document CHEMBL2311454, “Discovery and evaluation of novel inhibitors of mycobacterium protein tyrosine phosphatase B from the 6-Hydroxy-benzofuran-5-carboxylic acid scaffold” (J Med Chem, 2013).

Regarding `O=C(O)c1cc2c(/C=C\c3cc(F)cc(F)c3)c(-c3ccccc3)oc2cc1O`, the IC50 (commonly the concentration that inhibits the measured activity by half) in experiment [1] was found to be 5.7 µM. That is a single-digit micromolar value.

`O=C(O)c1cc2c(/C=C\c3ccc(OC(F)(F)F)cc3)c(-c3ccccc3)oc2cc1O`: the 50% inhibitory concentration (IC50) in experiment [2] stood at 12 µM; in experiment [3] it was 1.2 µM; in experiment [4], 11.6 µM; in experiment [5], 11.4 µM.
